Screening results from PubChem BioAssay.
Compounds with a hit are over-represented: about 16% of the library has one in this group of screens.
TDP1 cell noCPT: qHTS for Inhibitors of human tyrosyl-DNA phosphodiesterase 1 (TDP1): qHTS in cells in absence of CPT. DT40 Tdp1-/- hTDP1 cells, no CPT, ATP luminescence, 48 h. Potency, µM (highest dose often 46.2 µM), for the others: at the highest dose activity change, negative = growth inhibition, most hits filed as inhibitors. 420,000 compounds, 15% hits. AID 686978, 2013; also: potency is read from the fitted curve at half-maximal effect; % is scaled to controls: 0 for no effect and ±100 for the full control effect; nearly all actives have a fitted effect of over 55% in size
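DT40 Tdp1-/-;hTDP1 cells, no CPT (DMSO vehicle only), 400 cells/well; compounds pin-transferred; ≥48 hr, 37 °C; CellTiter-Glo 30 min RT dark, luminescence read.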
miR-21 FLuc: miR-21 reporter, rising signal. HeLa miR-21 FLuc reporter, luciferase, 48 h. Potency, µM (titrated, usually from 38.3 µM), without a hit: at the top dose reporter change, positive = more light. 340,000 tested, under 10 active. AID 2288; active = well fitted rising curve with a large enough effect; inconclusive = small, poorly fitted or top-dose-only effect; inactive = no such curve, though single readings can be large or run the other way;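 also: % of control where 0% means no effect; miR-21 action dims this reporter so a rising signal means less miR-21 action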
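HeLa miR-21-FLuc reporter line, endogenous miR-21; 2000 cells/well in DMEM/10% FBS; compound titration up to ~40uM final, 48 h, 37 degree Celsius; luciferase detection reagent, 15 min lysis, CCD luminescence.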
TDP1 block: TDP1 (human) enzyme inhibition; Q9NUW8; recombinant TDP1, AlphaScreen DNA substrate cleavage; Potency, µM (top dose mostly 130 µM), for the others: at the top dose activity change, negative = inhibition, hits mostly inhibitors; 350,000 compounds, 0.28% hits; also: potency is read from the fitted curve at half-maximal effect; % is scaled to controls: 0 for no effect and ±100 for the full control effect; nearly all actives have a fitted effect of over 40% in size
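Enzyme-compound mixtures sat 15 min at room temperature, followed by a 5 min reaction with 15 nM final substrate and 10 min with AlphaScreen beads. Recombinant human Tdp1 was used at 1 nM final.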
uPA surface inh: inhibitors of cell surface uPA generation | 330,000 compounds, 0.31% hits | cell surface uPA generation assay, qHTS | Potency, µM (highest dose often 38.3 µM), for the others: at the highest dose activity change, negative = inhibition, most hits filed as inhibitors; active = well fitted inhibition curve with a large enough effect; inconclusive = small, poorly fitted or top-dose-only effect; inactive = no such curve, though single readings can be large or run the other way; tested in mouse RAW 264.7 cells; also: potency is read from the fitted curve at half-maximal effect; % is scaled to controls: 0 for no effect and ±100 for the full control effect; nearly all actives have a fitted effect of over 55% in size
TDP1 cell CPT: DT40-hTDP1 cell growth loss with CPT; chicken DT40 Tdp1-/-;hTDP1 cells + 20 nM CPT, ATP luminescence, 48 h; Potency, µM (highest dose often 46.2 µM), for the others: at the highest dose activity change, negative = growth inhibition, most hits filed as inhibitors; 420,000 compounds, 12% hits; AID 686979; also: potency is read from the fitted curve at half-maximal effect; % is scaled to controls: 0 for no effect and ±100 for the full control effect; nearly all actives have a fitted effect of over 55% in size
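Chicken DT40 Tdp1-/- cells stably complemented with human TDP1 were seeded at 400 cells/well in medium containing 20 nM camptothecin, exposed to pin-transferred compounds, and grown at 37 °C for at least 48 hr. Viability was read as ATP luminescence.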
An asterisk follows results filed as active. Unless noted, calls follow the shape of the dose curve; as a rule, active = well fitted curve in the direction sought with a large enough effect; inconclusive = small, poorly fitted or top-dose-only effect, or another doubt; inactive = no such curve, though single readings can be large; an effect the other way counts as inactive or inconclusive.

How did CC1(C(=O)NCc2ccco2)Cc2c(-c3cccc(C(F)(F)F)c3)ccnc2O1 (stereo not given) do in these assays?
TDP1 cell noCPT: 2.9µM*; TDP1 cell CPT: 2.6µM*

What do the screens show for `CC1(C(=O)NCc2ccco2)Cc2c(-c3cccc(C(N)=O)c3)ccnc2O1` (stereo not given)?
TDP1 cell noCPT: 5.8µM*; TDP1 cell CPT: 4.1µM*

What do the screens show for `CC1(C(=O)NCc2ccccc2)Cc2c(-c3cccc(C(N)=O)c3)ccnc2O1` (stereo not given)?
TDP1 cell noCPT: 2.3µM*; TDP1 cell CPT: 3.3µM*

What do the screens show for `CC(=O)NCCNC(=O)C1(C)Cc2c(-c3cccc(C(N)=O)c3)ccnc2O1` (stereo not given)?
TDP1 cell noCPT: -4%; TDP1 cell CPT: -7%

Results for CC1(C(=O)NCCc2ccccc2)Cc2c(-c3ccc(C(N)=O)cc3)ccnc2O1 (stereo not given) ?
TDP1 cell noCPT: inconclusive; TDP1 cell CPT: 16µM*

What do the screens show for `CC1(CCc2ccccc2)NC(=O)N(CC(=O)Nc2ccc(S(N)(=O)=O)cc2)C1=O` (stereo not given)?
TDP1 cell noCPT: 3%; miR-21 FLuc: -4%; TDP1 block: 3%; uPA surface inh: 2%; TDP1 cell CPT: 3%

What do the screens show for `COc1ccc2[nH]c3nc(SCC(=O)Nc4cccc(NC(C)=O)c4)nnc3c2c1`?
TDP1 cell noCPT: 3%; miR-21 FLuc: -8%; uPA surface inh: -5%; TDP1 cell CPT: -1%

What do the screens show for `CC(=O)c1cc2c(cc1N(C(=O)c1ccco1)C(C(=O)NC1CCCC1)c1ccccc1F)OCO2` (stereo not given)?
TDP1 cell noCPT: -29%; miR-21 FLuc: -7%; TDP1 block: -12%; TDP1 cell CPT: -1%

What do the screens show for `C=CCc1cc(C=O)cc(OCC)c1OCc1ccc(Cl)cc1`?
TDP1 cell noCPT: inconclusive; miR-21 FLuc: -7%; TDP1 block: -8%; uPA surface inh: 6%; TDP1 cell CPT: inconclusive

Results for C=CCc1cc(C=O)cc(OC)c1OCc1ccc(Cl)cc1 ?
TDP1 cell noCPT: 18µM*; miR-21 FLuc: -13%; TDP1 block: -4%; uPA surface inh: -1%; TDP1 cell CPT: inconclusive

Results for OCC1(CCOc2ccccc2)CCN(CC2=Cc3cc(Cl)ccc3OC2)CC1 ?
TDP1 cell noCPT: 21µM*; miR-21 FLuc: 7%; TDP1 block: 8%; uPA surface inh: -3%; TDP1 cell CPT: 18µM*

Results for COc1cc(Cl)c(CN2CCC(CO)(CCOc3ccccc3)CC2)cc1OC ?
TDP1 cell noCPT: inconclusive; miR-21 FLuc: 10%; uPA surface inh: 15%; TDP1 cell CPT: inconclusive

What do the screens show for `COc1cccc(-c2cc(C(=O)NCC3CCCO3)c3cc(Br)cc(C)c3n2)c1` (stereo not given)?
TDP1 cell noCPT: inconclusive; miR-21 FLuc: -1%; TDP1 block: 1%; uPA surface inh: -1%; TDP1 cell CPT: inconclusive

Results for COc1ccc(NC(=O)c2nc[nH]c2C(=O)N(C)Cc2ccccc2)cc1 ?
TDP1 cell noCPT: inconclusive; miR-21 FLuc: -7%; TDP1 block: 5%; uPA surface inh: -2%; TDP1 cell CPT: 23µM*

Results for CN(Cc1ccccc1)C(=O)c1[nH]cnc1C(=O)Nc1ccc(Cl)cc1 ?
TDP1 cell noCPT: 23µM*; TDP1 block: -1%; uPA surface inh: inconclusive; TDP1 cell CPT: inconclusive

How did CCC(CC)c1nn2c(=O)cc(COc3ccc(NC(=O)c4cccc(C)c4)cc3)nc2s1 do in these assays?
TDP1 cell noCPT: inconclusive; miR-21 FLuc: -4%; TDP1 block: 6%; TDP1 cell CPT: 1%

Results for COC(=O)C(CC(=O)c1ccc(Br)cc1)n1nc(C)cc1C (stereo not given) ?
TDP1 cell noCPT: inconclusive; miR-21 FLuc: -3%; TDP1 block: 0%; uPA surface inh: -2%; TDP1 cell CPT: inconclusive

2 compounds picked at random from those above, as already listed:
Results for CN(Cc1ccccc1)C(=O)c1[nH]cnc1C(=O)Nc1ccc(Cl)cc1 ?
TDP1 cell noCPT: 23µM*; TDP1 block: -1%; uPA surface inh: inconclusive; TDP1 cell CPT: inconclusive

Results for COC(=O)C(CC(=O)c1ccc(Br)cc1)n1nc(C)cc1C (stereo not given) ?
TDP1 cell noCPT: inconclusive; miR-21 FLuc: -3%; TDP1 block: 0%; uPA surface inh: -2%; TDP1 cell CPT: inconclusive
